Earlier results, collected in US10473640B2, “Drug selection for gastric cancer therapy using antibody-based arrays” (Société des Produits Nestlé S.A., priority 2006, dated 2019).

Assays:
[1] = tested on: HER2(+) gastric cancer; conditions: XP+trastuzumab vs capecitabine+cisplatin (XP); cited from earlier work
[2] = tested on: HER2(+) metastatic breast cancer; conditions: cited from earlier work

For “trastuzumab: humanized monoclonal antibody which selectively targets HER2”, the “progression free survival rate” value [1] is listed as “significant prolongation” and the survival [2] is listed as “survival benefit”.
